# Literature values, collected in patent US20140050720A1, “ULTRALONG COMPLEMENTARITY DETERMINING REGIONS AND USES THEREOF” (THE SCRIPPS RESEARCH INSTITUTE, priority 2012, published 2014).
# B1: ibritumomab tiuxetan (conjugate, chains of the INN, looked up)
# heavy: QAYLQQSGAELVRPGASVKMSCKASGYTFTSYNMHWVKQTPRQGLEWIGAIYPGNGDTSYNQKFKGKATLTVDKSSSTAYMQLSSLTSEDSAVYFCARVVYYSNSYWYFDVWGTGTTVTVSAPSVYPLAPVCGDTTGSSVTLGCLVKGYFPEPVTLTWNSGSLSSGVHTFPAVLQSDLYTLSSSVTVTSSTWPSQSITCNVAHPASSTKVDKKIEPRGPTIKPCPPCKCPAPNLLGGPSVFIFPPKIKDVLMISLSPIVTCVVVDVSEDDPDVQISWFVNNVEVHTAQTQTHREDYNSTLRVVSALPIQHQDWMSGKEFKCKVNNKDLPAPIERTISKPKGSVRAPQVYVLPPPEEEMTKKQVTLTCMVTDFMPEDIYVEWTNNGKTELNYKNTEPVLDSDGSYFMYSKLRVEKKNWVERNSYSCSVVHEGLHNHHTTKSFSR
# light: QIVLSQSPAILSASPGEKVTMTCRASSSVSYMHWYQQKPGSSPKPWIYAPSNLASGVPARFSGSGSGTSYSLTISRVEAEDAATYYCQQWSFNPPTFGAGTKLELKRADAAPTVFIFPPSDEQLKSGTASVVCLLNNFYPREAKVQWKVDNALQSGNSQESVTEQDSKDSTYSLSSTLTLSKADYEKHKVYACEVTHQGLSSPVTKSFN
# modifications: tiuxetan chelator radioisotope conjugate
# notes: antibody-radioisotope conjugate of a murine IgG1 kappa anti-CD20 monoclonal antibody
# Test system: B-cell non-Hodgkin's Lymphoma (NHL)
# Conditions: cited from earlier work
molecule,measurement,setting,value
B1,activity against B-cell non-Hodgkin's Lymphoma (NHL),"human, in vivo",has activity
same,cytopenias on administration,patients,severe and prolonged cytopenias in most patients
